Measured values: patent publication US8901138B2, “Sulfoximine substituted quinazolines for pharmaceutical compositions” (Boehringer Ingelheim International GmbH, priority 2012, dated 2014)

Chains of the proteins cited; added tags and fusions are not shown. Residues count along the entry.
UniProt Q9HBH9, whole entry: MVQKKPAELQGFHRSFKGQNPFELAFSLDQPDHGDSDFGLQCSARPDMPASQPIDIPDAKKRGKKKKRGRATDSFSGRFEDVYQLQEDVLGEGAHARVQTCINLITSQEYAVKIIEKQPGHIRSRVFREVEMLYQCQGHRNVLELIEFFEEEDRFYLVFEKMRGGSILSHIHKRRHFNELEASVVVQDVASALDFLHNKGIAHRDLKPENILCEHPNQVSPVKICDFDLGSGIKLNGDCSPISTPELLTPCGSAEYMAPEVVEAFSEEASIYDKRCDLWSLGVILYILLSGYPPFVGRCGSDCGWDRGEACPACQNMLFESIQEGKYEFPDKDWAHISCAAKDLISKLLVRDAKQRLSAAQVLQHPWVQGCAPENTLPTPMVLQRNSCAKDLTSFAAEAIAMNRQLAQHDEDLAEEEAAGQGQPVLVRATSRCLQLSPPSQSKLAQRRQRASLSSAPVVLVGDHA
UniProt Q9BUB5, 1-424 isoform 2: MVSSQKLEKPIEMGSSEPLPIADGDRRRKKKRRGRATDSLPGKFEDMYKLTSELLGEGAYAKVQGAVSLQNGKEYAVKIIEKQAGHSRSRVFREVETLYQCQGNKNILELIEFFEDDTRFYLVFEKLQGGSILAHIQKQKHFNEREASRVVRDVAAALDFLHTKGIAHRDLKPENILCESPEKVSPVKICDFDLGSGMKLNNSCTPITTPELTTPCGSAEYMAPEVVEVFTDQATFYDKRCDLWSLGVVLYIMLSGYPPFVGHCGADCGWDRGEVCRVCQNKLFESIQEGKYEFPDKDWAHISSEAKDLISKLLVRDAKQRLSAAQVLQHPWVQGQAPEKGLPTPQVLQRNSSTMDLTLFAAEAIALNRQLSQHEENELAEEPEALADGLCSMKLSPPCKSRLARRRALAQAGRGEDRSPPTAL

What was measured:
[1] = target: MNK2a (Homo sapiens, UniProt Q9HBH9); assay: MNK2a in vitro kinase assay (assay 1), ADP-Glo; format: biochemical; settings: read-out: MNK2 IC50, preactivated GST-MNK2a, 20 μM ATP
Procedure: A. MNK2a In Vitro Kinase Assay (Assay 1)
ASSAY SETUP: The inhibition of kinase activity of MNK2a was assessed using preactivated GST-MNK2a. The white, 384-well OptiPlate F plates were purchased from Perkin Elmer. The ADP-Glo Kinase Assay (including ultra pure ATP) was purchased from Promega (V9103). Activated MNK2a was obtained as described in WO2011/104340. The unlabeled eIF4E peptide (NH2-[…]—CONH2) (SEQ ID NO: 1), differing from Seq. ID No. 5 of WO 2011/104340 by the C-terminal —CONH2 group, was purchased from Thermo Fisher Scientific. All other materials were of highest grade commercially available. Compounds are tested in either serial dilutions or single dose concentrations. The compound stock solutions are 10 mM in 100% DMSO The serial compound dilutions are prepared in 100% DMSO followed by 1:27.3 intermediate dilution in assay buffer. The final DMSO concentration in assay will be <3%. In the 384-well plates 3 μl of test compound from the intermediate dilution is mixed with 4 μl of the activated MNK2 enzyme (final concentration of 10 nM) and 4 μl of the peptide (final concentration of 25 μM)/ultra pure ATP (final concentration of 20 μM), all dissolved in assay buffer. This step is followed by an incubation time of 90 min, then 10 μl of ADP Glo reagent are added, followed by 40 min of incubation. Then 20 μl of kinase detection reagent are admixed. The plates are sealed and after an incubation period of 30 min, the luminescence signal is measured in an Envision reader to determine the amount of produced ADP. All incubation steps are performed at room temperature. The assay buffer consists of 20 mM HEPES, 2 mM DTT, 0.01% BSA, 20 mM MgCl2 and 0.1% Pluronic F-127.
Each assay microtiter plate contains wells with vehicle controls instead of compound (1% DMSO in water) as reference for the high signal (100% CTL, high signal), and wells containing a potent MNK2 inhibitor (final 20 μM, 1% DMSO) as reference for low signal (0% CTL, low signal).
The luminescent signal generated is proportional to the ADP concentration produced and is correlated with activated MNK2 activity. The analysis of the data is performed by the calculation of the percentage of ATP consumption of activated MNK2 in the presence of the test compound compared to the consumption of ATP in the presence of activated MNK2 without compound. (RLU(sample)−RLU(low control))*100/(RLU(high value)−RLU(low control)) [RLU=relative luminescence units]
An inhibitor of the MNK2 enzyme will give values between 100% CTL (no inhibition) and 0% CTL (complete inhibition). Values of more than 100% CTL are normally related to compound/sample specific physico-chemical properties (e.g. solubility, light absorbance, fluorescence).
IC50 values based on dose response curves are calculated with the AssayExplorer software.

[2] = target: MNK1a (Homo sapiens, UniProt Q9BUB5); assay: MNK1 in vitro kinase assay (assay 2), Z'-LYTE; settings: compound concentration of 1 μM
From the text: B. MNK1 In Vitro Kinase Assay (Assay 2)
MNK1 Data can be obtained from the MNK1 Z′-LYTE® assay. The MNK1 Z′-LYTE® screening protocol and assay conditions are also described on www.invitrogen.com.
The assay is described as follows:
The Z′-LYTE® biochemical assay employs a fluorescence-based, coupled-enzyme format and is based on the differential sensitivity of phosphorylated and non-phosphorylated peptides to proteolytic cleavage. The peptide substrate is labeled with two fluorophores—one at each end—that make up a FRET pair.
In the primary reaction, the kinase transfers the gamma-phosphate of ATP to a single tyrosine, serine or threonine residue in a synthetic FRET-peptide. In the secondary reaction, a site-specific protease recognizes and cleaves non-phosphorylated FRET-peptides. Phosphorylation of FRET-peptides suppresses cleavage by the Development Reagent. Cleavage disrupts FRET between the donor (i.e., coumarin) and acceptor (i.e., fluorescein) fluorophores on the FRET-peptide, whereas uncleaved, phosphorylated FRET-peptides maintain FRET. A ratiometric method, which calculates the ratio (the Emission Ratio) of donor emission to acceptor emission after excitation of the donor fluorophore at 400 nm, is used to quantitate reaction progress, as shown in the equation below. Emission Ratio=Coumarin Emission(445 nm)/Fluorescein Emission(520 nm)
ASSAY SETUP: The inhibition of kinase activity of MNK1a was assessed using pre-activated GST-MNK1a. The 2×MKNK1 (MNK1) mixture is prepared in 50 mM HEPES pH 7.5, 0.01% BRIJ-35, 10 mM MgCl2, 4 mM MnCl2, 1 mM EGTA, 2 mM DTT. […]
9. Read on fluorescence plate reader and analyze the data […]
Correction for Background Fluorescence: FSample−FITCFl Ctl
Emission Ratio (using values corrected for background fluorescence):Coumarin […]
% Phosphorylation (% Phos): 1−((Emission Ratio×F100%)−C100%)/((C0%−C100%)+[Emission Ratio×(F100%−F0%)])*100 % Inhibition: 1−(% PhosSample/% Phos0% Inhibition Ctl)*100 FI=Fluorescence Intensity C100%=Average Coumarin emission signal of the 100% Phos. […]

IC50 [1] [nM]	% Inhibition of MNK1 [2] [%]	SMILES
6	95	Cc1cc(N=S2(=O)CCNCC2)cc2ncnc(Nc3ccc(F)cc3O[C@@H]3CCNC3)c12
4	97	COc1cc(N=S(C)(C)=O)cc2ncnc(Nc3ccc(F)cc3O[C@H]3CC[C@H](O)CC3)c12

The next lines start with the compound.

SMILES	IC50 [1] [nM]	% Inhibition of MNK1 [2] [%]
Cc1cc(N=S(C)(C)=O)cc2ncnc(Nc3ccc(F)cc3OC3CCC(F)(F)CC3)c12	14	71
CO[C@@H]1CO[C@H]2[C@@H]1OC[C@H]2Oc1cc(F)ccc1Nc1ncnc2cc(N=S3(=O)CCCC3)cc(F)c12	2	
COc1cc(N=S2(=O)CCCC2)cc2ncnc(Nc3ccc(F)cc3O[C@@H]3CO[C@@H]4CCO[C@@H]43)c12	1	
